Results: patent US8658693B2, “4-aminobenzonitrile selective androgen receptor modulators” (Eli Lilly and Company, priority 2011, dated 2014)

Test system: castrated (GDX) male Sprague Dawley rats
Assay: In vivo model of efficacy and selectivity (delayed rat gonadectomy model)
Details: after 2 weeks of treatment; for effect on striated muscles LA and BC: delayed rat gonadectomy model; for androgenic risk (increase in prostate wet weights): same animals

| Structure (SMILES) | effect on striated muscles LA and BC | androgenic risk (increase in prostate wet weights) |
| --- | --- | --- |
| Cc1c(N[C@@H]2CCC[C@@]2(C)O)ccc(C#N)c1Cl (single isomer, unassigned) [Example 1] | dose-dependent increase | minimal accrual of androgenic risk |
| Cc1c(N[C@H]2CCC[C@@]2(C)O)ccc(C#N)c1Cl [Example 2, 2-Chloro-4-[[(1S,2R)-2-hydroxy-2-methyl-cyclopentyl]amino]-3-methyl-benzonitrile] | dose-dependent increase | minimal accrual of androgenic risk |
